In US12527776B2, “Treatment of ciliopathies using inhibitors of glucosylceramide synthase (GCS)” (GENZYME CORPORATION, priority 2019, dated 2026):

Test system: plasma GL-1, GL-3, and GM3 concentrations
Experiment: Phase 1 Study 2: pharmacodynamic endpoints (plasma GL-1, GL-3, GM3)
Type: in vivo, human
Conditions: Day 15, plasma
Protocol: Study 2 was a single-center, double-blind, randomized, placebo-controlled, sequential ascending repeated-dose study of the safety, tolerability, PK, and pharmacodynamics of Compound 2 in healthy adult male and female volunteers.
The study enrolled and randomized 36 healthy adults (19 men and 17 women) (n=9 each to group). The subjects were randomized to receive once-daily doses of Compound 2 at 5, 10, or 20 mg (provided as 5-mg capsules of the L-malic salt form) or placebo for 14 days after at least a 10-hour fast.
Blood was sampled for plasma concentrations of Compound 2 as follows: Day 1 at 0, 0.5, 1, 2, 3, 4, 5, 6, 8, 10, 12, and 16 hours post-dose; On Days 2-5, 8, 11, and 13, at 0 h; On Day 14, at 0.5, 1, 2, 3, 4, 5, 6, 8, 10, 12 hours post-dose; On Days 15-17, at 24, 48, and 72 hours, respectively, after the Day 14 dose. Urine samples were collected for analysis of Compound 2 concentrations on Day 1 (0 hour post-dose) and continuously on Day 14 from 0-24 hours post-dose. Pharmacodynamic endpoints (plasma GL-1, GL-3, and GM3 concentrations) were assessed on Days 1-5, 8, 11, 13, and 14, at 0 hours […]; and on Day 15, at 24 hours after the Day 14 dose.

Structure (SMILES): CC(C)(NC(=O)O[C@@H]1CN2CCC1CC2)c1csc(-c2ccc(F)cc2)n1 [Compound 2, (S)-quinuclidin-3-yl 2-(2-(4-fluorophenyl)thiazol-4-yl)propan-2-ylcarbamate]
- GL-1 treatment ratio, point estimate (5 mg vs placebo): 0.39
- GL-3 treatment ratio, point estimate (5 mg vs placebo): 0.61
- GM3 treatment ratio, point estimate (5 mg vs placebo): 0.56
- GL-1 treatment ratio, point estimate (10 mg vs placebo): 0.32
- GL-3 treatment ratio, point estimate (10 mg vs placebo): 0.69
- GM3 treatment ratio, point estimate (10 mg vs placebo): 0.49
- GL-1 treatment ratio, point estimate (20 mg vs placebo): 0.23
- GL-3 treatment ratio, point estimate (20 mg vs placebo): 0.67
- GM3 treatment ratio, point estimate (20 mg vs placebo): 0.40
